Test results as given in ChEMBL document CHEMBL4400508, “Targeted Endocrine Therapy: Design, Synthesis, and Proof-of-Principle of 17β-Hydroxysteroid Dehydrogenase Type 2 Inhibitors in Bone Fracture Healing” (J Med Chem, 2019).
pIC50: −log10 of the molar value.

Columns and labels:
[1] = target: T1, 17-beta-hydroxysteroid dehydrogenase type 1 (Homo sapiens, UniProt P14061)
T1 sequence (P14061 whole entry): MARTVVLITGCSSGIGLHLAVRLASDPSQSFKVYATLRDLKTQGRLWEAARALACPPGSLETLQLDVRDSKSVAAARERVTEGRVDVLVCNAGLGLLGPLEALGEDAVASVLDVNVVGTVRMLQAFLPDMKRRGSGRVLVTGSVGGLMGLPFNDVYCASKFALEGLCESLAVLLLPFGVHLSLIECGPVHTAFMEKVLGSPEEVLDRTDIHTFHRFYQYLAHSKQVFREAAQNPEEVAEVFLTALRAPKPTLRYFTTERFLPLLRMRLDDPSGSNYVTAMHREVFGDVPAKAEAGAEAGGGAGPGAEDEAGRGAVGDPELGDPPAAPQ

[2] = target: T2, Estradiol 17-beta-dehydrogenase 2 (Mus musculus, UniProt P51658); assay: biochemical; type: tissue-based, Liver
T2 sequence (P51658 whole entry): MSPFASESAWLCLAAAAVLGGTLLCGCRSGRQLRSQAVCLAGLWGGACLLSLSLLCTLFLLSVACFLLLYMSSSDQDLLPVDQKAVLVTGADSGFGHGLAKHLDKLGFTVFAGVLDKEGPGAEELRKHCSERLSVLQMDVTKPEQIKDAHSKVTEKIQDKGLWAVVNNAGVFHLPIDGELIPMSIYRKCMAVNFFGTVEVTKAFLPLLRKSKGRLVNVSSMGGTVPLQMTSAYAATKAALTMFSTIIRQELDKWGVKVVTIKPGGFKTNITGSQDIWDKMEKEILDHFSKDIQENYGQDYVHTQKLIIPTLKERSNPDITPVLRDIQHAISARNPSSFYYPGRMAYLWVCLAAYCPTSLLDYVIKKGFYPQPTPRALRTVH

pIC50 [1]	pIC50 [2]	Compound
8.92	–	O=C(c1ccc(-c2cccc(NS(=O)(=O)c3ccc(F)cc3)c2)s1)c1cc(F)c(F)c(O)c1F
8.14	–	O=C(c1ccc(-c2cccc(NS(=O)(=O)c3ccccc3)c2)s1)c1cccc(O)c1F
–	8.05	O=C(c1ccc(-c2cccc(NS(=O)(=O)c3ccccc3)c2)s1)c1c(Cl)ccc(O)c1F
